What was measured:
human TRPV1 [1] = biological target: T1, human TRPV1 (Homo sapiens, UniProt Q8NER1); test: Capsaicin-based assay, Protocol 2 (TRPV1/CHO cells, Fluo-4, FLIPR); assay type: cell-based; conditions: capsaicin 100 nM final, mean ± SEM, number of trials in parentheses, read-out: TRPV1 IC50 Potency, Human Capsaicin CHO (hCAP-CHO)
T1 construct: using primers designed surrounding the complete hTRPV1 open reading frame; expressed in transfected cells; host or cells: CHO-K1 cells stably transfected with pcDNA3.1(-)-hVR1 plasmid
Description: The TRPV1/CHO cell line was generated as described below. […] The resulting PCR products were purified from agarose gels using Gel Band Purification Kit (GE Healthcare Bioscience) and were subcloned into pCR-Blunt vector (Invitrogen). The cloned cDNA was fully sequenced using a fluorescent dye-terminator reagent (BigDye Terminator ver3.1 Cycle Sequencing Kit, Applied Biosystems) and ABI Prism 3100 genetic analyzer (Applied Biosystems). The pCR-Blunt vector containing the hTRPV1 cDNA was subjected to restriction digestion with EcoRI. The restriction fragment was subcloned into expression vector pcDNA3.1 (-) (Invitrogen) and named pcDNA3.1 (-)-hVR1 plasmid. The sequence of the cDNA encoding TRPV1 is available at GenBank accession number AJ277028. […] The cells were transfected with the pcDNA3.1 (-)-hVR1 plasmid using FuGENE6 (Roche) according to the manufacturer's protocol. 24 hr after transfection, neomycin-resistant cells were selected using 1 mg/mL G418 (Nacalai Tesque). […] The cells expressing hTRPV1 were cultured in the growth medium supplemented with 1 mg/mL G418. […] Subsequently, the cells were loaded by incubation in 0.1 mL of wash buffer containing Fluo-4 at 3 μM final concentration. After 1 hour, the cells were washed twice with 0.2 mL wash buffer and resuspended in 0.1 mL wash buffer. The plates were then transferred to a Fluorescence Imaging Plate Reader (Molecular Devices). Fluorescence intensity was monitored for 15 seconds to establish a baseline. […] The final concentration of the compound was adjusted to range from 100 μM to 1.5625 μM. […] Data were collected over the entire time course and analyzed using Excel and the curve-fitting formula GraphPad Prism.

The chains behind the UniProt entries cited, without tags or fusion partners.
UniProt Q8NER1, whole entry: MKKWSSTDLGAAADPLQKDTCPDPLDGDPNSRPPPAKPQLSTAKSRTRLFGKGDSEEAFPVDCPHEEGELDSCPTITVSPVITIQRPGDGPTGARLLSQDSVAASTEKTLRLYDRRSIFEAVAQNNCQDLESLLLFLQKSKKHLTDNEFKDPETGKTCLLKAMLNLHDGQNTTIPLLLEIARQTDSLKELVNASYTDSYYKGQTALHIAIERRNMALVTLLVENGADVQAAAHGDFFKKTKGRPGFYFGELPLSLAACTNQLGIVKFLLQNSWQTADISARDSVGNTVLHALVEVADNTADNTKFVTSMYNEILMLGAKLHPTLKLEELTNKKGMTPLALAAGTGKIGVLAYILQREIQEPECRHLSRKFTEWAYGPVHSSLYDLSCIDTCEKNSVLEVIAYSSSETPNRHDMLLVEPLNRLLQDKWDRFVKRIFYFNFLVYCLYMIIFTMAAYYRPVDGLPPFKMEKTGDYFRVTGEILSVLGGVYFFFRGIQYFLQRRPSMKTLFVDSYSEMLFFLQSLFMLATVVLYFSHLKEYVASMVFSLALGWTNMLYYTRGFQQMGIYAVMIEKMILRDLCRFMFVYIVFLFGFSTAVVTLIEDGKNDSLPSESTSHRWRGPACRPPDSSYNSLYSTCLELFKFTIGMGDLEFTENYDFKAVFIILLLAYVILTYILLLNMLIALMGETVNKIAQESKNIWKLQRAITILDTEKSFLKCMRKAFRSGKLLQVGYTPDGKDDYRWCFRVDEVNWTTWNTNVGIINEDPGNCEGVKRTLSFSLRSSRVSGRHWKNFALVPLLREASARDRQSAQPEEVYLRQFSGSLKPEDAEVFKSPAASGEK

human TRPV1 [2] = biological target: T1, human TRPV1; test: pH-based assay, Protocol 2 (TRPV1/CHO cells, Fura-2 AM, FDSS-3000, pH 5.0-5.1); assay type: cell-based; conditions: H2SO4 agonist, mean ± SEM, number of trials in parentheses, read-out: TRPV1 IC50 Potency, Human pH CHO (hpH-CHO)
Description: For Protocol 2, a Chinese Hamster Ovary cell line (CHO) that has been engineered to constitutively express human recombinant TRPV1 was used (TRPV1/CHO cells). The TRPV1/CHO cell line was generated as described below.
The resulting PCR products were purified from agarose gels using Gel Band Purification Kit (GE Healthcare Bioscience) and were subcloned into pCR-Blunt vector (Invitrogen). The cloned cDNA was fully sequenced using a fluorescent dye-terminator reagent (BigDye Terminator ver3.1 Cycle Sequencing Kit, Applied Biosystems) and ABI Prism 3100 genetic analyzer (Applied Biosystems). The pCR-Blunt vector containing the hTRPV1 cDNA was subjected to restriction digestion with EcoRI. The restriction fragment was subcloned into expression vector pcDNA3.1 (−) (Invitrogen) and named pcDNA3.1 (−)-hVR1 plasmid. The sequence of the cDNA encoding TRPV1 is available at GenBank accession number AJ277028.
CHO-K1 cells were maintained in growth medium consisting of α-MEM, 10% FBS (Hyclone), and 100 IU/mL of penicillin-100 μg/mL of streptomycin mixed solution (Nacalai Tesque, Japan) at 37° C. in an environment of humidified 95% air and 5% CO2. […]
(5) The Fura-2 fluorescent intensity was monitored at a wavelength of 340 nm and at 380 nm, respectively, at a rate of 0.5 Hz for a total of 240 seconds.

| IC50 (human TRPV1 [1]) [nM] | IC50 (human TRPV1 [2]) [nM] | Compound |
| --- | --- | --- |
| 231 ± 45.3 | – | CCC(O)c1cnc(C2=CCN(C(=O)Nc3ccc(C(F)(F)F)cc3)CC2)c(Cl)c1 (stereo not drawn) [Compound U2] |
| 1330 ± 334 | 1180 ± 147 | CN1CCCc2ccc(NC(=O)N3CCC(F)(c4ncccc4F)CC3)cc21 [Compound T4] |
| 1080 ± 202 | – | COCc1cnc(C2=CCN(C(=O)Nc3ccc(OC(F)(F)F)cc3)CC2)c(Cl)c1 [Compound G3] |
| 136 | 31.8 | O=C(Nc1ccc(C(F)(F)F)cc1)N1CC=C(c2ncccc2Cl)CC1 [Compound 200] |

— patent US20090170867A1, “TRPV1 ANTAGONISTS INCLUDING SULFONAMIDE SUBSTITUENT AND USES THEREOF” (Shionogi & Co., Ltd., priority 2007, published 2009)
